Target: tetrameric transthyretin (Homo sapiens, UniProt P02766)
Assay: Immuno-turbidimetric assay 1: plasma + compound, 4.8 M urea, glutaraldehyde cross-linking, Olympus OSR6175 reagent
Conditions: 7.2 μM, plasma with 17.7, 25.4 or 30.1 mg/dL transthyretin, FIG. 8

Compound: O=C(O)c1ccc2nc(-c3cc(Cl)cc(Cl)c3)oc2c1 [Cmp. 2]
- Kinetics of tetrameric transthyretin stabilization at different transthyretin concentrations: equivalent
- Efficacy on different plasma concentrations of transthyretin (days 1-3): equivalently effective on different concentrations of transthyretin

Source: US20080131907A1, “ASSAYS FOR DETECTING NATIVE-STATE PROTEINS AND IDENTIFYING COMPOUNDS THAT MODULATE THE STABILITY OF NATIVE-STATE PROTEINS” (FoldRx Pharmaceuticals, Inc., priority 2006, published 2008)
